Marks after values point to notes of the source that are not given here.
Assays:
[1] = Pharmacokinetics in C57Bl6 mice; format: in vivo, mouse; conditions: 10 mg/kg i.v., FIG. 31
[2] = system: TFPI; assay: FXa inhibition assay (human TFPI); conditions: read-out: FXa Inhibition IC50; Table 10
[3] = system: C57Bl/6NCrl mice; assay: Nail clip bleeding study in mice; format: in vivo, mouse; conditions: 60 minutes collection
Experimental: Ten week old C57Bl/6NCrl mice were housed for two weeks prior to the study. […] The animals were anaesthetized with 80 mg/kg pentobarbital ten minutes prior to the nail clip. To achieve bleeding, the nail of the small toe of the right hind paw was removed. The paw was submerged in a 0.9% NaCl solution for blood collection for a period of 60 minutes. Blood loss was quantified after lysis by spectrophotometry. The temperature was kept constant at 37° C. over the course of the experiment.
Animals were anaesthetized 10 minutes before nail clip with 80 mg/kg pentobarbital (i.p.). At time=0 minutes, the nail of the small toe of the right hind paw was cut just before the nail bed. The paw was transferred to a vial prefilled with 0.9% NaCl solution. Samples of blood were collected for analysis during the first 30 minutes following the nail clip and the next 30 minutes thereafter, and mean collected volume for the groups was calculated and compared. Mean blood loss in vehicle treated mice was about 30.5 μl over the first 30 minutes, 52.1 μl over the second 30 minute period, resulting in about 82.6 μl of blood loss over 60 minutes.

[4] = Plasma stability in mouse plasma
[5] = Plasma stability in human plasma
[6] = Solubility; conditions: formulated in 25 mm HEPES, pH 7.35, 175 mM NaCl
[7] = system: TFPI; assay: % Inhibition @ 2.5µM
[8] = system: TFPI; assay: FXa Inhibition assay | EC50 (µM)
[9] = system: TFPI; assay: % Inhibition @ 0.63µM

Row | Substance | plasma concentration after intravenous administration [1] | IC50 [2] [nM] | blood loss, Mean ([3]; 10 mg/kg i.v.) [µL] | blood loss, Mean ([3]; 10 mg/kg s.c.) [µL] | Plasma Stability (half life in minutes) mouse [4] [h] | Plasma Stability (half life in minutes) human [5] [h] | Solubility (mg/ml) [6] | % Inhibition @ […] [7] [%] | EC50 [8] [nM] | % Inhibition @ […] [9] [%]
1 | Ac-FQSKGNVFVDGYFERL-Aib-AKLC(PEG(40 kD))-NH2 [JBT1855] | present at high concentrations in mouse plasma at 100 minutes post-administration | 70 | 29.9 | 31.7 | >2 | >2 | >1.00* mg/ml |  |  | 
2 | Ac-FQSKGNVFVDGYFERL-Dap-AKL-NH2 (SEQ ID NO: 56) [JBT0697] |  |  |  |  |  |  |  | 73 | 500 | 52
3 | Ac-FQSKGNVFVDGYFERL-Orn-AKL-NH2 (SEQ ID NO: 57) [JBT0699] |  |  |  |  |  |  |  |  | 410 | 57
